Data reported in publication PMC9774897 (Antibiotics, 2022).
In brackets after ≈: the same amount, converted by molar mass. Non-standard residues stand in square brackets, D forms with d. Residues, ends and D or L forms follow the SMILES beside them.

Assays:
M. microti [1] = test system: M. microti
M. microti [2] = test system: M. microti; remark: listed apart in the source
[3] = test system: biofilm-forming M. abscessus; test: Antibiofilm activity, crystal violet staining; format: cell-based; conditions: 4-day old biofilms, peptide 6.2–200 µg/mL, 24 h, 37 °C, 562 nm
Protocol: The procedure is followed by the previously described. Beiefly, M. abscessus colonies grown in Middlebrook 7H11-OADC are resuspended in a sterile PBS and diluted to OD600 0.05 in Sauton’s minimal media. A total of 150 µL bacterial suspension is added into 96-well poly-D-lysine coated plates and further incubated at 37 °C for 4 days. After incubation, the culture medium and planktonic cells are removed and washed once with PBS. In this case, 150 μL of serial two-fold diluted peptide in the range of 6.2–200 µg/mL are added into a 4-day old biofilm and further incubated at 37 °C for 24 h. The peptides are removed and washed once with 150 µL PBS. Next, 100 µL of 0.05% crystal violet solution is added in each well and incubated at room temperature (RT) for 30 min. The dye solution is discarded and microwells are washed once with PBS and air-dried. The crytal violet is extracted with 300 µL of 30% acetic acid and further incubated at RT for 30 min. Finally, the absorbance is measured at 562 nm using Eon microplate spectrophotometer (BioTek Instruments, Inc., Winooski, VT, USA). The percent of relative biofilm mass is calculated. Untreated wells are defined as 100% biofilm formation. The experiment is conducted in duplicate and repeated three times.

With `CC(C)[C@@H](NC(=O)[C@@H](CO)NC(=O)[C@@H](CCCNC(=N)N)NC(=O)[C@@H](CCCNC(=N)N)NC(=O)[C@@H](CCCNC(=N)N)NC(=O)[C@@H](CCCNC(=N)N)NC(=O)CN)C(=O)N[C@H](CCC(N)=O)C(=O)N[C@H](Cc1c[nH]c2ccccc12)C(=O)N[C@H](CS)C(=O)N[C@H](C)C(=O)O` [D-hLF 1-11] (H-G[dR][dR][dR][dR][dS][dV][dQ][dW][dC][dA]-OH; N-terminus and C-terminus assumed) the “MIC, MODS Assay” value (M. microti [1]) was 200 µg/mL (≈ 145 µM), the “MIC, REMA” value (M. microti [2]) was 100 µg/mL (≈ 72.7 µM) and the “MIC, REMA” value (M. intracellulare) was 100 µg/mL (≈ 72.7 µM). For the same compound, the “MIC, REMA” value (M. avium) was 100 µg/mL (≈ 72.7 µM) and the “antibiofilm activity, relative biofilm mass versus untreated biofilm control” value [3] was “no significant difference”.
